The chains behind the UniProt entries cited, without tags or fusion partners.
UniProt Q9HC29, whole entry: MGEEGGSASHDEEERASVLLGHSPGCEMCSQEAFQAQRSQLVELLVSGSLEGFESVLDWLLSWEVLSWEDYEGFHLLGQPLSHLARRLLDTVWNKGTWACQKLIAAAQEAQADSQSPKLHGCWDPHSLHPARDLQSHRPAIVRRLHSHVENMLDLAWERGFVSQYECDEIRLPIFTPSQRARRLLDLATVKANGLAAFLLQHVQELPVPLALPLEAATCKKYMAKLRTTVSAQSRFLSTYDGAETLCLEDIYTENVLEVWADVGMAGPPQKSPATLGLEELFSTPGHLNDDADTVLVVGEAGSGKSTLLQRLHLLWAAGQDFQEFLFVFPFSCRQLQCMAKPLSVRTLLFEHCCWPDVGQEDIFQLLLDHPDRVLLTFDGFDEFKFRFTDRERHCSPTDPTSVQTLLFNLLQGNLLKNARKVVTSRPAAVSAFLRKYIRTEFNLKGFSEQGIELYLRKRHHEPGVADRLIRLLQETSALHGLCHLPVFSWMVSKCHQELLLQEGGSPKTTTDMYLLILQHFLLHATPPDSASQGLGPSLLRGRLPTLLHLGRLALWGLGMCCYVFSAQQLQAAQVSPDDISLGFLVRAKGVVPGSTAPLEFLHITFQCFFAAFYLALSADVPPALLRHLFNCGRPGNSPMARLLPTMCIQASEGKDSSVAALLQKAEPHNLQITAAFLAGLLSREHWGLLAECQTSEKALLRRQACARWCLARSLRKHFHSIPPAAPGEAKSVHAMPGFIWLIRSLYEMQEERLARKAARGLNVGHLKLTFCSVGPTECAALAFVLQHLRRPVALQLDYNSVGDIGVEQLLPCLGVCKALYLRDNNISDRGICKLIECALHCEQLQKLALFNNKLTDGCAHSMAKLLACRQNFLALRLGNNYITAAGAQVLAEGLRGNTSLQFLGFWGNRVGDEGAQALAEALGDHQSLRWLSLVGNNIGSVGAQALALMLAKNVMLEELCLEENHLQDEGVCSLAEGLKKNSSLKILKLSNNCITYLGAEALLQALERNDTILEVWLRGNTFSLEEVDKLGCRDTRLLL

According to paper PMC3152441 (Chemistry & biology, 2011):

Experiments:
NOD1 [1] = biological target: T1, NOD1 (Homo sapiens, UniProt Q9Y239); test: IL-8 secretion by MCF-7 cells over-expressing NOD1; type: cell-based; settings: 5 μg/ml γ-tri-DAP, 24 hours, MDP and TNFα as other stimuli
T1 sequence (Q9Y239 1-953): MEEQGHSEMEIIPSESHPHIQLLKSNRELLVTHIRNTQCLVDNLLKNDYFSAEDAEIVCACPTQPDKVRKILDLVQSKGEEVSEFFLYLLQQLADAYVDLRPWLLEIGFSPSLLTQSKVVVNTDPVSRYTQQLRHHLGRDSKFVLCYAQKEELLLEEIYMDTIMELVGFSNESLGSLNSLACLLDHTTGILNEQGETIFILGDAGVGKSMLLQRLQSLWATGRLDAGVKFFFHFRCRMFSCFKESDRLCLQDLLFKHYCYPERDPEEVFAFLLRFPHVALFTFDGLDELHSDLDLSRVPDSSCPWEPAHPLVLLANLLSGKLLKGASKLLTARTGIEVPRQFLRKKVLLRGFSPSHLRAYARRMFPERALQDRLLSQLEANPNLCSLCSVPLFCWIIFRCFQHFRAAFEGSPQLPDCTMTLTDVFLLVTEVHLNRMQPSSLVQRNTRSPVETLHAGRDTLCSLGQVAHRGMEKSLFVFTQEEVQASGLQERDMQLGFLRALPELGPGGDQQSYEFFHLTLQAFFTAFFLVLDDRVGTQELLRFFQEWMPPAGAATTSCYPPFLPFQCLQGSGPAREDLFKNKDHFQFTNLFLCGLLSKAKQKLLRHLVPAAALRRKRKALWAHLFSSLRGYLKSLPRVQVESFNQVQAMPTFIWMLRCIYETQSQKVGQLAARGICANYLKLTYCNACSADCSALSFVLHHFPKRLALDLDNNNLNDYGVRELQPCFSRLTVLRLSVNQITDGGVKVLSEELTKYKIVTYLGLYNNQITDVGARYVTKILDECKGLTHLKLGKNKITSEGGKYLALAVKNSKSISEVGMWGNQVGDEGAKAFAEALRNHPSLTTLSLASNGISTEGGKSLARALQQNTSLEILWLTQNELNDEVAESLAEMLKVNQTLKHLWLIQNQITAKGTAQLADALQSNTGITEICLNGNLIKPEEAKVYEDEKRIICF

NOD1 [2] = biological target: T1, NOD1; test: THP.1 macrophage NF-κB/AP-1-inducible SEAP reporter, γ-tri-DAP; type: cell-based; settings: 5 μM compound, 5 μg/ml γ-tri-DAP, 24 h
NOD1 [3] = biological target: T1, NOD1; test: 697 pre-B leukemia cells NF-κB-luciferase reporter, γ-tri-DAP; type: cell-based; settings: 697 cells, 10 μM compound, 20 μg/ml γ-tri-DAP, 24h
NOD1 [4] = biological target: T1, NOD1; test: HEK293T ISRE-driven luciferase reporter, γ-tri-DAP; type: cell-based; settings: 5 μM compound, 10 μg/ml γ-tri-DAP, 24 hrs
NOD1 [5] = biological target: T1, NOD1; test: Primary monocyte-derived dendritic cells activated with γ-tri-DAP; type: cell-based; settings: 15 μM compound
NOD1 [6] = biological target: T1, NOD1; test: 1D 1H-NMR ligand binding to recombinant NOD1; settings: 50 μM compound, 5 μM His6-Flag-NOD1
NOD1 [7] = biological target: T1, NOD1; test: ATP binding to recombinant NOD1 protein
NOD1 [8] = biological target: T1, NOD1; test: Ni/NTA pull-down of purified His6-tagged NOD1; settings: 20 μM compound
NOD2 = NOD2 (Homo sapiens, UniProt Q9HC29); test: Ni/NTA pull-down from cells expressing His6-tagged NOD2; type: cell-based; settings: MCF-7 cells, 5 μM compound, 16hr
NOD1 [9] = biological target: T1, NOD1; test: Endogenous NOD1 protein levels in HCT-116 cells; type: cell-based; settings: HCT-116, 5 μM compound, 24 hr
[10] = biological target: T2, NOD1 association with RIP2, Bid, or SGT-1 (Homo sapiens, UniProt Q9Y239); test: NOD1 association with interacting proteins under over-expressing conditions; type: cell-based
T2 sequence (Q9Y239 1-953): T1 sequence (Q9Y239 1-953)

NOD1 [11] = biological target: T1, NOD1; test: Subcellular fractionation of MCF-7 cells stably expressing epitope-tagged NOD1; type: cell-based; settings: MCF-7, 5 μM compound, 24hr

## Cc1ccc(S(=O)(=O)n2c(N)nc3ccccc32)cc1 [CID-1088438]
NOD1 [1]
  IL-8 production induced by NOD1 ligand: most potent of the analogs
NOD1 [2]
  NF-κB-inducible SEAP activity induced by γ-tri-DAP: inhibition by CID-1088438 was highly reproducible
NOD1 [3]
  NF-κB activity induced by NOD1 ligand γ-tri-DAP: is inhibited
NOD1 [4]
  ISRE-driven reporter gene activity induced by γ-tri-DAP: suppressed
NOD1 [5]
  cytotoxicity in dendritic cells: without causing cytoxicity
NOD1 [5]; 5 μg/ml γ-tri-DAP, 4hr, quantitative PCR
  expression of IL-1β, IL-6 and TNFα elicited by γ-tri-DAP: inhibited
NOD1 [5]; 5 μg/ml γ-tri-DAP, 24hr, flow cytometry
  cell surface expression of co-stimulatory molecules CD83, CD86 and HLA-DR elicited by γ-tri-DAP: reduced
NOD1 [5]; 4hr, quantitative PCR
  NOD1 expression levels in dendritic cells: No significant changes
NOD1 [6]
  compound proton (1H) signal intensity in the presence of NOD1: only suppressed in the presence of NOD1
NOD1 [7]
  ATP binding to recombinant NOD1 protein: did not interfere
NOD1 [8]
  relative amount of His6-NOD1 protein bound to nickel-chelating resin (Ni/NTA): markedly increased
NOD2
  efficiency of His6-myc-NOD2 protein pull-down by Ni/NTA: no effect
NOD1 [9]; 10 μg/ml γ-tri-DAP
  levels of endogenous NOD1 protein in cells cultured with γ-tri-DAP: but not active compound
NOD1 [9]
  levels of endogenous NOD1 protein in unstimulated cells: no clear difference
[10]
  NOD1 association with RIP2, Bid, or SGT-1: did not interfere
NOD1 [11]
  membrane localization of RIP2: reduced membrane localization
NOD1 [11]; independently of γ-tri-DAP induction
  NOD1 protein in the membrane fraction: induced enrichment
